Source: patent publication US4801458A, “Sustained release pharmaceutical plaster” (dated 1989)

Assay: Moisture content versus isosorbide dinitrate content of moisturized plaster (Experiment Example 6)
Settings: moisturized plaster of Example 5, room temperature, Table 6

In the case of `O=[N+]([O-])O[C@H]1CO[C@H]2[C@@H]1OC[C@H]2O[N+](=O)[O-]`, the “evaporation of isosorbide dinitrate (in words)” value is reported as “scarcely evaporated”.
